Test system: NPS target cells in the murine brain
Test: Intracerebral distribution of fluorophore-labelled NPS after ICV injection
Details: 30 min
Protocol: The mice were sacrificed 30 min post-injection.
Immunohistochemistry was performed on free-floating cryosections (40 μm).

rhodamine [pure rhodamine]
intracerebral distribution pattern (specificity): dispersed homogenously in the intercellular space throughout the entire brain

Reference: patent publication US20160279204A1, “PEPTIDES AND PHARMACEUTICAL COMPOSITIONS FOR USE IN THE TREATMENT BY NASAL ADMINISTRATION OF PATIENTS SUFFERING FROM ANXIETY AND SLEEP DISORDERS” (MAX-PLANCK-GESELLSCHAFT ZUR FÖRDERUNG DER WISSENSCHAFT E.V., priority 2011, published 2016)
